Laboratory results as given in patent US8765730B2 (Hoffmann-La Roche Inc, priority 2010, dated 2014).

Sequences of proteins named here, by UniProt entry; tags and fusion partners are left off.
UniProt Q8TDU6, whole entry: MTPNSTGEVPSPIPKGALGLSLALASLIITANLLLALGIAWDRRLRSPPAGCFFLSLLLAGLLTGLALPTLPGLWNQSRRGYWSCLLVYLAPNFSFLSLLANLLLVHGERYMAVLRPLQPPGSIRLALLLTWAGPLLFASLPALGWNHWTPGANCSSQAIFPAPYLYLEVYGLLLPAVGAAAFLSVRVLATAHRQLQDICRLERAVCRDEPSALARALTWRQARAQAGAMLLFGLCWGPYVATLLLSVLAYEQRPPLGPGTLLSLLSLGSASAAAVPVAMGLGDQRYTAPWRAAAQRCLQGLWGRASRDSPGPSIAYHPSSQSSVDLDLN

Molecular target: human GPBAR1 receptor (Homo sapiens, UniProt Q8TDU6)
Experiment: functional cAMP assay in CHO-dhfr(minus) cells expressing human GPBAR1 receptors
Format: cell-based
Settings: read-out: human EC50, 30 min at 30° C.

## Cc1cc(/C(C[C@H](c2ccc([C@H]3CC[C@H](C(=O)O)CC3)cc2)c2ccccc2C)=N/O)ccn1
  EC50: 17 nM
